Here are results for three molecules from patent US20130217664A1, “NOVEL COMPOUNDS USEFUL FOR THE TREATMENT OF DEGENERATIVE AND INFLAMMATORY DISEASES” (priority 2012, published 2013).

Sequences of proteins named here, by UniProt entry; tags and fusion partners are left off. Residues count along the entry.
UniProt P23458, 866-1154 limits assumed: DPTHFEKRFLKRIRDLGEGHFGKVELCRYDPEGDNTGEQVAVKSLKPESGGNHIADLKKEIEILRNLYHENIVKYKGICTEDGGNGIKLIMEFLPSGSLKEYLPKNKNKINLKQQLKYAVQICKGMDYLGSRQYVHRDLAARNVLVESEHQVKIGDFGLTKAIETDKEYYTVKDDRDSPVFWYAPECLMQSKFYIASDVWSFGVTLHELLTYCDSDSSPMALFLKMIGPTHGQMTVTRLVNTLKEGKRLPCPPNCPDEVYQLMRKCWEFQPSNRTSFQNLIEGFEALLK
UniProt O60674, 808-1132 limits assumed: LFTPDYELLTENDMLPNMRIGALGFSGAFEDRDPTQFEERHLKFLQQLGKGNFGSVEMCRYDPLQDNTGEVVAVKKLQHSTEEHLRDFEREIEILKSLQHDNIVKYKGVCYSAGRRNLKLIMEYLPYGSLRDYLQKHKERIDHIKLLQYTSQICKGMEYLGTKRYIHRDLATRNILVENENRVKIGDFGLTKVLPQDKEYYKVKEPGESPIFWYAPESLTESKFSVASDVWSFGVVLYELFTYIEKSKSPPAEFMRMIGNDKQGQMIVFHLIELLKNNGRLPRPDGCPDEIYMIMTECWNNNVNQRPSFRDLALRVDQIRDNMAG
UniProt P52333, 781-1124 limits assumed: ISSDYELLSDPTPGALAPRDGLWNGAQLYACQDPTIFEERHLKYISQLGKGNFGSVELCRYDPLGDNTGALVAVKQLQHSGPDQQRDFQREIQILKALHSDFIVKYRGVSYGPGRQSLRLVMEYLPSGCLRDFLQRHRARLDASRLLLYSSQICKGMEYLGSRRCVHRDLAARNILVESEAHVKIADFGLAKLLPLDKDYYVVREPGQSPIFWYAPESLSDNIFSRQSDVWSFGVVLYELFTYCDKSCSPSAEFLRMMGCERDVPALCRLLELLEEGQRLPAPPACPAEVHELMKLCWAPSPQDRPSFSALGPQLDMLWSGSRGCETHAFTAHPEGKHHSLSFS
UniProt P29597, 871-1187 limits assumed: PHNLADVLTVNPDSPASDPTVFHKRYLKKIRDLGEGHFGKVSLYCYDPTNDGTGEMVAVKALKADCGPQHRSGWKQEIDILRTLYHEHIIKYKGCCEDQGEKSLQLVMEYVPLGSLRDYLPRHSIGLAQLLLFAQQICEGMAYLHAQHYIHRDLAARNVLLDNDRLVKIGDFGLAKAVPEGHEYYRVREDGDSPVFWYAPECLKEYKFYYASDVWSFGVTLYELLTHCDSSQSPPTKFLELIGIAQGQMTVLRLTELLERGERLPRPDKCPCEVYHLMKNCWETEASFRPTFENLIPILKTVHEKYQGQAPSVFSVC

For test [1], the system named is pSTAT1(2)-luciferase reporter in HeLa cells triggered with human OSM. The experiment in a line: JAK-STAT signalling assay. It is filed as cell-based. Conditions: read-out: JAK-STAT IC50, human OSM 33 ng/mL.
The target of test [2] is human JAK1 (Homo sapiens, UniProt P23458). The experiment in a line: JAK1 inhibition assay (polyGT substrate / Ulight-JAK1 peptide). It is filed as biochemical. The settings on record: read-out: JAK1 IC50; recombinant human JAK1 catalytic domain; polyGT or Ulight-JAK1 peptide assay.
For test [3], the system named is BA/F3 cell line. Kind of test: BA/F3 viability assay. The settings on record: read-out: BA/F3 IC50; IL-3 dependent BA/F3 cells, 48 h, ATP content (ATP-lite).
The target of test [4] is human JAK2 (Homo sapiens, UniProt O60674). The experiment in a line: JAK2 inhibition assay (polyGT substrate / Ulight-JAK1 peptide). The settings on record: read-out: JAK2 IC50; recombinant human JAK2 catalytic domain; polyGT or Ulight-JAK1 peptide assay. It is filed as biochemical.
In test [5] the test system is CTLL-2 cell line. Kind of test: CTLL2 viability assay. The settings on record: read-out: CTLL2 IC50; IL-2 dependent CTLL2 viability, 24 h, ATP-lite.
In test [6] the target is human JAK3 (Homo sapiens, UniProt P52333). The experiment in a line: JAK3 inhibition assay. The class given is biochemical. Conditions: read-out: JAK3 IC50; recombinant human JAK3 catalytic domain; polyGT substrate.
Test [7] concerns the target human TYK2 (Homo sapiens, UniProt P29597). The experiment in a line: TYK2 inhibition assay. It is filed as biochemical. The settings on record: read-out: TYK2 IC50; recombinant human TYK2 catalytic domain, polyGT substrate.

The structures appear in SMILES notation.

For the molecule `CCNC(=O)N1CCC(c2ccc(N(C)c3cc4c(cn3)ncn4C)c(CC)c2)CC1`, the IC50 in test [1] fell in the range of 1 to 500 nM.
As to `CN(c1ccc2nsnc2c1)c1cc2c(cn1)ncn2C`, in test [2], the IC50 was more than 1000 nM.
With `CN(c1cc2c(cn1)ncn2C)c1ccc(C2CN(S(C)(=O)=O)C2)cc1OC(F)F`, the IC50 in test [2] is 0.01 to 100 nM; in test [3], 1000 to 5000 nM; in test [4], 0.01 to 100 nM; in test [5] it was more than 1000 nM; in test [6], 0.01 to 100 nM; in test [7], 101 to 500 nM.
